Results published in PMC11650849, “Brain endothelial permeability, transport, and flow assessed over 10 orders of magnitude using the in situ brain perfusion technique” (Fluids and Barriers of the CNS, 2024).

Conditions: rat, in vivo, pH 7.4

With `COc1ccc2c(c1)c(CC(=O)O)c(C)n2C(=O)c1ccc(Cl)cc1` [Indomethacin] the “Log PoS” value was 1.16.
